System: hfRPE cells
Experiment: BrdU incorporation assay, hfRPE proliferation
Assay type: cell-based, human
Conditions: data not shown
Procedure: BrdU incorporation was performed as described in Li, R. et al., 2007, Invest Ophthalmol Vis Sci, 48, 5722-5732, incorporated by reference in its entirety herein. IFNγ, TNFα, and IL-1β were obtained from Peprotech, Rocky Hill, N.J., and Universal Type I Interferon (cat: 11200-1) or human interferon beta la were from PBL biomedical laboratories (New Brunswick, N.J.). Cumulative effects were measured by adding VEGF165, EGF and bFGF (Peprotech), and PDGF-BB (R & D Systems) with IFNγ. Anti-human IFNγ R1 blocking antibody (R & D Systems, Minneapolis, Minn.), JAK inhibitor I, AG490, or JAK3 inhibitor II (EMD Biosciences, Gibbstown, N.J.) was added to the cells one hour prior to the addition of IFNγ. SFM was used as the negative control and SFM supplemented with 5% serum was used as positive control. After treatment for 48 hours, RPE cells were incubated with BrdU for 24 hours. The proliferation rate was evaluated using a Cell proliferation ELISA BrdU Kit (Roche, Ind.). Quadruplicate wells were used for each condition and the experiments were repeated at least two times using cell cultures from different donors. Cell viability was evaluated using a Live/Dead Viability/Cytotoxicity Kit (Invitrogen).

B1: IFNβ: type I IFN (protein, UniProt P01574 22-187, looked up)
Interferon beta: MSYNLLGFLQRSSNFQCQKLLWQLNGRLEYCLKDRMNFDIPEEIKQLQQFQKEDAALTIYEMLQNIFAIFRQDSSSTGWNETIVENLLANVYHQINHLKTVLEEKLEKEDFTRGKLMSSLHLKRYYGRILHYLKAKEYSHCAWTIVRVEILRNFYFINRLTGYLRN
For B1, the “effect of type I IFN on hfRPE proliferation” value was “no effect”.
